2 substances from US20070129568A1, “Ionic liquids” (nGimat, Co., priority 2005, published 2007) can be followed below.

Data set [1] can be described thus: Room temperature evaporation rate: rate of weight loss in a stream of 25° C. nitrogen relative to n-butyl acetate. Format: physicochemical. As to conditions: relative to n-butyl acetate under the same conditions. As to the method:
Most compounds released by manufacturing processes affect the environment in some manner. […] The room temperature evaporation rates of some of the ILs described in the present invention were compared to several well known compounds by measuring the rate of weight loss in a stream of 25° C. nitrogen relative to the rate of weight loss of n-butyl acetate under the same conditions.

For data set [2] the following is noted: range of 43 organic solvents.

Regarding Nickel (II) 2-ethylhexanoate [Ni(2eh)2], in data set [1], the “Evaporation Rate (n-Butyl Acetate = 1)” value is listed as below 0.001.

As to “aluminum (III) 2-ethylhexanoate [Al(2eh)3]”, the “Solubility in the tested organic solvents” value in data set [2] is “only found to dissolve in carbon tetrachloride”.
